# According to ChEMBL document CHEMBL5108049, “Development and Characterization of Type I, Type II, and Type III LIM-Kinase Chemical Probes” (J Med Chem, 2022):
# How the values were obtained:
# Assay type in all cases: functional
# Details in all cases: 0.5 h
# [1] = Upregulation of ANLN expression in human HeLa cells assessed as fold increase at 100 uM incubated for 30 mins by phosphoproteomic analysis
# HeLa = assay: Downregulation of HNRNPU expression in human HeLa cells assessed as fold increase at 100 uM incubated for 30 mins by phosphoproteomic analysis
# [2] = Upregulation of HNRNPC expression in human HeLa cells assessed as fold increase at 100 uM incubated for 30 mins by phosphoproteomic analysis
# [3] = Upregulation of NEFH expression in human HeLa cells assessed as fold increase at 100 uM incubated for 30 mins by phosphoproteomic analysis
# [4] = Upregulation of ARHGAP17 expression in human HeLa cells assessed as fold increase at 100 uM incubated for 30 mins by phosphoproteomic analysis
# [5] = Upregulation of CAP2 expression in human HeLa cells assessed as fold increase at 100 uM incubated for 30 mins by phosphoproteomic analysis
# [6] = Upregulation of PCM1 expression in human HeLa cells assessed as fold increase at 100 uM incubated for 30 mins by phosphoproteomic analysis
# [7] = Upregulation of INF2 expression in human HeLa cells assessed as fold increase at 100 uM incubated for 30 mins by phosphoproteomic analysis
# [8] = Upregulation of CTTNBP2NL expression in human HeLa cells assessed as fold increase at 100 uM incubated for 30 mins by phosphoproteomic analysis
smiles,measurement,setting,value
CC(C)C(=O)Nc1ncc(-c2cc(C(F)F)nn2-c2c(Cl)cccc2Cl)s1,fold change (FC),[1],1.02
same,fold change (FC),HeLa,-1.03
same,fold change (FC),[2],1.09
same,fold change (FC),[3],1.01
same,fold change (FC),[4],1.01
same,fold change (FC),[5],1
same,fold change (FC),[6],1.03
same,fold change (FC),[7],1.03
same,fold change (FC),[8],1.01
